## Binding of CDR-mutated scFvs to a peptide of the spike HR2 region

From the AlphaSeq antibody data of Engelhart et al. 2022 (doi:10.1038/s41597-022-01779-4), copy in the FLAb collection.

Binding partner: SARS-CoV-2 spike HR2 peptide, sequence PDVDLGDISGINAS.

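Phage display of a naive human antibody library on the peptide gave the parent. Library AAYL50 holds single substitutions and randomly drawn double and triple substitutions in the CDRs. The assay is AlphaSeq: two haploid yeast populations carry antibody and antigen on their surface. Binding brings cells together so that they mate, and sequencing counts the barcode pairs among the diploids. Scores were corrected for input abundance and mapped to Kd with protein pairs of known affinity run in the same pool. The assay was run in three technical replicates.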

Parent scFv Ab-14: VH joined to VL by a 15-residue (Gly4Ser)3 linker. Changes lie in the light chain CDRs alone.
VH: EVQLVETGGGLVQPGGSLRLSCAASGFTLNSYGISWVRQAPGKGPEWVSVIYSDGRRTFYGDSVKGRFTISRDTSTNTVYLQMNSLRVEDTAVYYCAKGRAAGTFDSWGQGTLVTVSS
VL: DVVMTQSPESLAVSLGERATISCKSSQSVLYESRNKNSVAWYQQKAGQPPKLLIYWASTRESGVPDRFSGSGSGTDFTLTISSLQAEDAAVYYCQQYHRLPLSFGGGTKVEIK

Variants are written as CDR1, CDR2 and CDR3 of the light chain (limits as in the source). Parent: KSSQSVLYESRNKNSVA, WASTRES, QQYHRLPLS. Scale: log10 of Kd in nM, estimated from mating counts; low values are strong binders. A mean of the replicates is given; it leaves out those without a signal. A pair that was not seen in that replicate is written "n.d."; this usually means weak binding, but a binder can also be missed. Background: pairings of library AAYL50 with three empty control strains gave a value in 18% of cases (median 4.19, 5th percentile 2.99). Values in that range, when seen in few replicates, are hard to tell from nonspecific mating. Also given: how often the same scFv was detected with the empty control strains, with their mean in brackets. Parent in this assay: reference entry 0.65, copy in this library 1.68.

CDR-L1	CDR-L2	CDR-L3	replicates, log10 nM	mean log10 Kd (nM)	signal with controls
YSSQSVLYEMRNKNSVA	WASTRVS	QQYHRLPLS	n.d. / 3.18 / n.d.	3.18	2/9 (4.26)
KSSQSVLYESRNKNSVP	VASTRES	QQYHILPLS	n.d. / 3.48 / n.d.	3.48	0/9
KSSQSVLYCSRNKNQVA	MASTRES	QQYHRLPLS	3.64 / 2.45 / n.d.	3.04	0/9
KSRQSVLIESRNKNSVA	WASTRIS	QQYHRLPLS	2.04 / 1.96 / 2.12	2.04	6/9 (4.73)
KSSGSVLYESRNKNSVA	WASTRES	QQYHHLPYS	1.47 / 1.47 / 1.81	1.58	1/9 (4.06)
KSSSSVLYESRNKNSVA	WASTHES	QQYHRLPLN	n.d. / 5.33 / 6.04	5.69	1/9 (3.82)
KSSQSVLYESRRENSVA	WASSRES	QQYHRLPLS	1.52 / 1.71 / 1.84	1.69	2/9 (3.64)
KSSQSVLFQSRNKNSVA	WASTRES	QQYMRLPLS	0.95 / 1.02 / 1.01	0.99	5/9 (4.30)
KRSQSVLYESFNKNSVA	WASTRES	QQYHRGPLS	1.47 / 1.74 / 2.01	1.74	1/9 (3.48)
KSSQSVLYESRNKKSVA	WARTRTS	QQYHRLPLS	n.d. / n.d. / 3.69	3.69	0/9
KSSQSVMYECRNKNSVA	WASTRES	QQYHRLPLC	n.d. / n.d. / n.d.	n.d.	1/9 (4.06)
KSSQSVLYESRNKNSVW	WKSTNES	QQYHRLPLS	n.d. / 2.92 / n.d.	2.92	1/9 (3.71)
KSSQSVLYESVNYNSVA	WASTRES	QQYHRLPLS	1.08 / 1.16 / 1.37	1.20	0/9
KSSQSVLYESRNKNNVL	WASTRES	QQPHRLPLS	n.d. / 4.73 / n.d.	4.73	2/9 (4.49)
CSSQSVLYESRNKNSVA	WQSTVES	QQYHRLPLS	n.d. / 3.17 / n.d.	3.17	3/9 (4.13)
KSSQSVLYEIRNQNSVA	WAWTRES	QQYHRLPLS	n.d. / n.d. / n.d.	n.d.	0/9
KSSQSALYESRNKNSVA	WASTRVS	QQYMRLPLS	-0.11 / 0.19 / 0.09	0.06	1/9 (4.46)
KSSQSVAYEHRNKNSVA	WASTRES	QQYHRLHLS	1.58 / 1.74 / 2.08	1.80	2/9 (4.27)
KSSQSVLYESRNKNSNA	WASWRES	QQYHRPPLS	n.d. / n.d. / n.d.	n.d.	0/9
KSSQSVAYESRNKNSVA	SASTRES	QQYHRLPLY	0.62 / 1.02 / 1.05	0.90	1/9 (3.01)
KSSQSVAYELRNKNSVA	WASTIES	QQYHRLPLS	4.56 / 3.46 / n.d.	4.01	3/9 (4.84)
KSSQSVLYEWRNKNQVA	WASTRES	QQYHRLPLY	4.29 / n.d. / 5.49	4.89	1/9 (4.30)
KSSQSVLYESRNKNSVA	WHSTRES	QQDHRLVLS	3.53 / n.d. / n.d.	3.53	1/9 (4.74)
KSSQSVLPESRNSNSVA	WASTRES	QQYHRLPLS	0.54 / 0.77 / 0.74	0.68	3/9 (4.49)
KSSQSVLYESRNKNSVA	PASTSES	QQYHRLPLS	n.d. / 4.72 / n.d.	4.72	2/9 (5.47)
KSSQSVLYESRNKNSVA	WASTQES	YQYIRLPLS	n.d. / n.d. / n.d.	n.d.	0/9
KSSQSVLYEKVNKNSVA	WASTRES	GQYHRLPLS	2.29 / 2.55 / 3.14	2.66	2/9 (3.09)
KSSQSVLYESRNENSIA	WASTRES	QQYHILPLS	1.33 / 1.28 / 1.26	1.29	0/9
KSPQSVLYESRLKNSVA	WASTRES	QQYHRLPCS	2.27 / 2.86 / 3.39	2.84	2/9 (3.74)
KSSQSVLYECRNKNSVA	WASGRES	QQYHRLPLF	n.d. / n.d. / n.d.	n.d.	0/9
KSSQSVLYSSRNKNSVR	WASTRES	QQYHRLPLS	n.d. / n.d. / n.d.	n.d.	0/9
VSSQSVLFESRNKNSVA	TASTRES	QQYHRLPLS	0.90 / 1.15 / 1.04	1.03	1/9 (4.83)
KSSQSVLYEHRFKNSVA	WAETRES	QQYHRLPLS	3.80 / n.d. / n.d.	3.80	1/9 (3.27)
KSSQSVLYESRNKNSVA	WASTRES	GQRHRDPLS	1.20 / 1.27 / 1.44	1.30	0/9
KFSPSVLYESRNKNSVA	WASTQES	QQYHRLPLS	1.10 / 1.17 / 1.19	1.15	6/9 (4.57)
GSSRSVLYESRNKNSVA	WAKTRES	QQYHRLPLS	n.d. / 3.95 / n.d.	3.95	1/9 (3.44)
KSSQSVLYENRMKNSVA	WASTRES	QQYHRLPRS	1.25 / 1.27 / 1.41	1.31	2/9 (4.47)
KSSQSELYESRNKNSVA	WASDNES	QQYHRLPLS	n.d. / n.d. / n.d.	n.d.	1/9 (4.47)
KGSQSVLYESRNKNSVA	WASTRES	QQPHRLHLS	n.d. / 3.90 / 4.02	3.96	2/9 (4.80)
KSSQSGLYESRNKNSGA	MASTRES	QQYHRLPLS	n.d. / n.d. / n.d.	n.d.	1/9 (3.95)
KSSQMVLYESRNKNPVA	WASTRES	QQIHRLPLS	3.93 / n.d. / n.d.	3.93	2/9 (4.16)
KSSQSVLYESRARNSFA	WASTRES	QQYHRLPLS	2.87 / 3.40 / 4.24	3.51	2/9 (4.73)
KSSQSVVYESRNKNSVA	WASTRES	CQYHRLPLI	4.96 / 4.91 / n.d.	4.94	2/9 (4.52)
KSCKSVLYESRNKNSVA	WQSTRES	QQYHRLPLS	4.39 / n.d. / n.d.	4.39	4/9 (4.98)
KSSQSVLYESRNKNSHA	CASTRES	QQYHRLFLS	n.d. / n.d. / 3.43	3.43	0/9
KSSQGVLYEGRNKNSVA	WASTRES	QQYHRLPLP	0.86 / 1.05 / 1.11	1.01	2/9 (5.39)
KSSQSVLYESRNKNSVA	WASMRED	PQYHRLPLS	n.d. / n.d. / n.d.	n.d.	2/9 (3.39)
KSSQSVLYESRNKNHVA	WASTRKS	QQYHRNPLS	5.11 / 2.24 / n.d.	3.68	2/9 (3.95)

Extract of 7 entries:

CDR-L1	CDR-L2	CDR-L3	replicates, log10 nM	mean log10 Kd (nM)	signal with controls
KSSQSVLYESRNKNSVA	PASTSES	QQYHRLPLS	n.d. / 4.72 / n.d.	4.72	2/9 (5.47)
KSSQSVLYESVNYNSVA	WASTRES	QQYHRLPLS	1.08 / 1.16 / 1.37	1.20	0/9
KSSQSVLYEKVNKNSVA	WASTRES	GQYHRLPLS	2.29 / 2.55 / 3.14	2.66	2/9 (3.09)
KSSQSGLYESRNKNSGA	MASTRES	QQYHRLPLS	n.d. / n.d. / n.d.	n.d.	1/9 (3.95)
CSSQSVLYESRNKNSVA	WQSTVES	QQYHRLPLS	n.d. / 3.17 / n.d.	3.17	3/9 (4.13)
KRSQSVLYESFNKNSVA	WASTRES	QQYHRGPLS	1.47 / 1.74 / 2.01	1.74	1/9 (3.48)
KSSQSVMYECRNKNSVA	WASTRES	QQYHRLPLC	n.d. / n.d. / n.d.	n.d.	1/9 (4.06)